Conditions: concentration of 50% (w/w)

In the case of “C12/14-NMe3-Methyl Oxalate [Comparative example 1, reference compound]”, the “solubility in Solvent Naphtha” value is reported as “insoluble”.

Reference: patent publication US10815444B2, “Use of specific derivatives of quaternized nitrogen compounds as additives in fuels and lubricants” (BASF SE, priority 2013, dated 2020)
